Patent publication US20200170258A1

Target: Flagellin-sensing 3 (FLS3) of tomato (tomato)
Assay: cell-based or functional assay

B1: A.sp.FlgII-28 (peptide)
peptide: EIHEMLQRMRELAVQAANGTYSDKDKKA
modifications: not checked
Work on B1 yielded an ROS activity in tomato leaf tissue, Average RLU value, 5 nM Flg polypeptide of 33000 RLU.
